Measured values published in paper PMC4885109, “Rapid Discovery and Structure–Activity Relationships of Pyrazolopyrimidines That Potently Suppress Breast Cancer Cell Growth via SRC Kinase Inhibition with Exceptional Selectivity over ABL Kinase” (Journal of Medicinal Chemistry, 2016).

Sequences of proteins named here, by UniProt entry; tags and fusion partners are left off.
UniProt P05177, whole entry: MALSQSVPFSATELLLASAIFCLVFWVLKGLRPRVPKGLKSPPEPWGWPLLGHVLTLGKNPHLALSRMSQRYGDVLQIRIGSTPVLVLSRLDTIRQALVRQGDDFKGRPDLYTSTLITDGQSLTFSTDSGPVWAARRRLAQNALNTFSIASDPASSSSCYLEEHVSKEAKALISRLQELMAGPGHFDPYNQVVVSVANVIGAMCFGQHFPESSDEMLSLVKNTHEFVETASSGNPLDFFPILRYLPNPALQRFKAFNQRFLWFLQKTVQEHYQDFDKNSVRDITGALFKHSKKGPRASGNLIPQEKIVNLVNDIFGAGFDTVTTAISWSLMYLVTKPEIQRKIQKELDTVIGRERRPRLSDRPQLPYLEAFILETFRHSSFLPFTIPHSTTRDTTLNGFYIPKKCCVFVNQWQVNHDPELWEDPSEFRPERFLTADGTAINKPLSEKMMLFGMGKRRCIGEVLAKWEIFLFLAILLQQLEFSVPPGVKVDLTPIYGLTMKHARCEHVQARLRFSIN

Biological target: CYP1A2 (Homo sapiens, UniProt P05177)
Settings: 10 μM

O=c1cc(-c2ccccc2)oc2c1ccc1ccccc12 [Naphthoflavone, reference compound]
inhibition of CYP1A2: 99.82%
